The data set can be described thus: dissolution of xanthoxylin during chemical solution adjustment. On the procedure:
Note that the present inventors confirmed during an experiment of chemical solution adjustment that xanthoxylin was dissolved in a cleaning chemical solution for wiping off sebum and oil contaminations although xanthoxylin was also hardly soluble in water.
Also, the present inventors discovered that it was possible to dissolve xanthoxylin in a water-based chemical solution by using ethanol and a surfactant together since xanthoxylin had compatibility with ethanol and a surfactant contained in the cleaning chemical solution and achieved the present invention.

On to `COc1cc(O)c(C(C)=O)c(OC)c1`, for which the “dissolution in cleaning chemical solution” value (cleaning chemical solution for wiping off sebum and oil contaminations, containing ethanol and a surfactant) is reported as “dissolved”. Besides, the solubility in water result (water) was “hardly soluble in water”.
